Assay results reported in article PMC8807600, “Catalytic trajectory of a dimeric nonribosomal peptide synthetase subunit with an inserted epimerase domain” (Nature Communications, 2022).

Protein sequences, listed by entry. Tags and fused reporters are not part of them. Lines headed by an entry give the natural chain unless they say otherwise; changes in a name come on top.
UniProt G3XCV2: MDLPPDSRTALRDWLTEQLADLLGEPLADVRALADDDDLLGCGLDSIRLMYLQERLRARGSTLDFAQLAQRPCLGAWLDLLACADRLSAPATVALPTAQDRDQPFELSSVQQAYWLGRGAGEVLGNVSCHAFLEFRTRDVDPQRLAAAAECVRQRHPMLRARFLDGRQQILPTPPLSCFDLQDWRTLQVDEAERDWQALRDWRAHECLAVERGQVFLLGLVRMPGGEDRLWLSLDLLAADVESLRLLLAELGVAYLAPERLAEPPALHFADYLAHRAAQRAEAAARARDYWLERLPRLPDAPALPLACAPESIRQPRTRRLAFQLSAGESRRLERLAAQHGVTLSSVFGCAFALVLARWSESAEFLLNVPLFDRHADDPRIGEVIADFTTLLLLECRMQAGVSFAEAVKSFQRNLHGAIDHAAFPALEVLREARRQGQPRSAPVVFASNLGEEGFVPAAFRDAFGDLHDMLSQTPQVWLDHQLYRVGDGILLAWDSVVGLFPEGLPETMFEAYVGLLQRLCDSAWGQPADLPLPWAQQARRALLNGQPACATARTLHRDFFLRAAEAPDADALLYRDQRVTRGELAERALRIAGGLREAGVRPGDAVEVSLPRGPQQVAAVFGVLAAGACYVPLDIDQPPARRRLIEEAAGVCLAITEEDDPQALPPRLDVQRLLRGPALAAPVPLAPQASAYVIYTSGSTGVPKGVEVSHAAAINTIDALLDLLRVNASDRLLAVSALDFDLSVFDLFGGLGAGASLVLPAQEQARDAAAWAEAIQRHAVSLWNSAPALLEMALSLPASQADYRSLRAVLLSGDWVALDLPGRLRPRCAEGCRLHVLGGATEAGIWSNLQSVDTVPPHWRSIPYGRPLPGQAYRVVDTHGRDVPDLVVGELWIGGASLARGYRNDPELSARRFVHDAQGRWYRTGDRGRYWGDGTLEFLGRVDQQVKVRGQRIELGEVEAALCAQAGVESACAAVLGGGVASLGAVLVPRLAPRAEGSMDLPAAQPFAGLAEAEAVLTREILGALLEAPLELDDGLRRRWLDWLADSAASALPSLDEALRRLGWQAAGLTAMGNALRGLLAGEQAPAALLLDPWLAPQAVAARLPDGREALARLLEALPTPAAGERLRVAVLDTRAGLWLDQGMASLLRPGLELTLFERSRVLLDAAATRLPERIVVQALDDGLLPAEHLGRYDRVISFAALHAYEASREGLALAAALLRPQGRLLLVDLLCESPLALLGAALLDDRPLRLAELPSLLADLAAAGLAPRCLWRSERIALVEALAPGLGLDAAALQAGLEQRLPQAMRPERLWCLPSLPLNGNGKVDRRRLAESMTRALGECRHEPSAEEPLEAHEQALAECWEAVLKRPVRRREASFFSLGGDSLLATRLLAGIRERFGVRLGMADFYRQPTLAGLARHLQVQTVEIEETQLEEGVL

Target: PchE (Pseudomonas aeruginosa, UniProt G3XCV2)
Settings: A domain, both chains of conformation 2 (3.78 A)

Nc1ncnc2c1ncn2[C@@H]1O[C@H](COP(=O)(O)O)[C@@H](O)[C@H]1O [AMP] was tested, and the cryo-EM structure was “Both chains have their Asub domain rotated relative to the Acore (complexed with AMP)”.
